Test system: standard pool of bacteria, yeasts, and molds

OO [Hydrogen peroxide, hydrogen peroxide]
effectiveness in all heat-aged challenge tests (heat-aged, in the presence of a chelating reagent): effective

CC(C)(C)OO [t-BHP, t-butyl hydroperoxide]
effectiveness as preservative for the aqueous dispersion of opaque polymers: effective as preservatives

Source: patent publication US20250223431A1, “AQUEOUS DISPERSION OF BIOCIDE-FREE ORGANIC OPACIFYING PIGMENT PARTICLES” (Rohm and Haas Company, priority 2022, published 2025)
